# Source: patent publication US20050106592A1, “Method for identifying a pharmacologically active substance” (priority 2002, published 2005)
# Target: T1, ACE from pig kidney (EC 3.4.15.1) (Sus scrofa, UniProt F1RRW5)
# T1 construct: angiotensin-converting-enzyme derived from pig kidney; purchased Sigma; host or cells: pig kidney (tissue-derived enzyme)
# T1 sequence (F1RRW5 34-1309): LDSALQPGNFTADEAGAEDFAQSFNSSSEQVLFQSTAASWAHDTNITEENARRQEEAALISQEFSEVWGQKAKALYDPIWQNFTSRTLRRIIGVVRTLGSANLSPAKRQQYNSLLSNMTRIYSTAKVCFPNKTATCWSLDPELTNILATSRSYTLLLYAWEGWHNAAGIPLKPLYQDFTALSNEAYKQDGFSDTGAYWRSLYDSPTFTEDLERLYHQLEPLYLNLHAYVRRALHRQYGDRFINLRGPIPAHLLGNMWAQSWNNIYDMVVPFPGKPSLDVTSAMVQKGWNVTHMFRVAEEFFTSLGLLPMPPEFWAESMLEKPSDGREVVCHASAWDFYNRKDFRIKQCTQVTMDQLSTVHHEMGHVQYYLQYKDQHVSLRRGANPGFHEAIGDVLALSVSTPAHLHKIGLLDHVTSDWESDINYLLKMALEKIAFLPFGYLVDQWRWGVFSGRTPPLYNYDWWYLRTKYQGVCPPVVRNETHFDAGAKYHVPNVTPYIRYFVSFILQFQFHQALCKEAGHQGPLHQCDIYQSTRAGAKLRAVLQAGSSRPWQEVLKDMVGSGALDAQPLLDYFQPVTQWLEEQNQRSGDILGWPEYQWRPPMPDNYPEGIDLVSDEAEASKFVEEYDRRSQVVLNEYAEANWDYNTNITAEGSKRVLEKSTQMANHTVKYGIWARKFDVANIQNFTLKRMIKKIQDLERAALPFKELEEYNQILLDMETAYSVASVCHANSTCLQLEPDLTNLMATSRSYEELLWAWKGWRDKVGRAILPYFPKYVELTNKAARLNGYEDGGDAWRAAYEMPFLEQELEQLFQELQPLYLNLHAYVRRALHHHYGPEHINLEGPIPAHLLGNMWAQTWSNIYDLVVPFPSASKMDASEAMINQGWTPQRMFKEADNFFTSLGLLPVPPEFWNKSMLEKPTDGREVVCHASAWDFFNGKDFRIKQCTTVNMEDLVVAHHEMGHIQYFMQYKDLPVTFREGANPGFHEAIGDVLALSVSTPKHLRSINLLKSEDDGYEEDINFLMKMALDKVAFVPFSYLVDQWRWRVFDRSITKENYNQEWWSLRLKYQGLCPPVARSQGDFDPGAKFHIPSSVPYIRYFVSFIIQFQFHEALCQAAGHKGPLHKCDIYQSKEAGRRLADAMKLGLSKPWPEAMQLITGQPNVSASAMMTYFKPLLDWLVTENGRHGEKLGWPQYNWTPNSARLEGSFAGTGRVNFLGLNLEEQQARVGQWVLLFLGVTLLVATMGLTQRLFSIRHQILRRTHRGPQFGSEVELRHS
# Format: biochemical
# Conditions: Table 2
structure (smiles),measurement,value
CC(C)C[C@H](NC(=O)[C@H](C)NC(=O)[C@H](C)NC(=O)CNC(=O)[C@H](C)NC(=O)[C@H](CCC(=O)O)NC(=O)[C@H](CCC(=O)O)NC(=O)[C@H](CC(N)=O)NC(=O)[C@@H]1CCCN1C(=O)[C@H](CCC(=O)O)NC(=O)[C@H](CO)NC(=O)[C@H](CC(C)C)NC(=O)[C@@H](NC(=O)[C@@H]1CCC(=O)N1)C(C)C)C(=O)N[C@@H](CO)C(=O)N1CCC[C@H]1C(=O)N[C@@H](CC(C)C)C(=O)N1CCC[C@H]1C(=O)N[C@@H](CCC(=O)O)C(=O)N[C@H](C(=O)N1CCC[C@H]1C(=O)N1CCC[C@H]1C(=O)O)C(C)C [Peptide S492],IC50,> 300 µM
